The subject of this assay is Utrophin A promoter linked to a luciferase reporter gene. Description: Luciferase reporter assay (murine H2K cells). Format: cell-based. Particulars: Mus musculus, H2K mdx.

Consider `CCP(=O)(OC)c1ccc2oc(-c3ccc(Cl)cc3)nc2c1` (stereo not shown) [Example 455, Methyl 2-(4-chlorophenyl)benzo[d]oxazol-5-yl(ethyl)phosphinate], for which the activity at 10 µM is more than 401%.

These data come from US8501713B2, “Drug combinations for the treatment of duchenne muscular dystrophy” (Summit Corporation PLC, priority 2007, dated 2013).
